Assay results: PubChem BioAssay (NCATS)
The list shows a part of the results, in another mix than the full data. Results filed as inconclusive are left out. The source made the active and inactive calls. Unless noted, calls follow the shape of the dose curve; as a rule, active = well fitted curve in the direction sought with a large enough effect; inconclusive = small, poorly fitted or top-dose-only effect, or another doubt; inactive = no such curve, though single readings can be large; an effect the other way counts as inactive or inconclusive.

Amino acid sequences for entries named in this document (tags omitted).
UniProt P08684, whole entry, looked up: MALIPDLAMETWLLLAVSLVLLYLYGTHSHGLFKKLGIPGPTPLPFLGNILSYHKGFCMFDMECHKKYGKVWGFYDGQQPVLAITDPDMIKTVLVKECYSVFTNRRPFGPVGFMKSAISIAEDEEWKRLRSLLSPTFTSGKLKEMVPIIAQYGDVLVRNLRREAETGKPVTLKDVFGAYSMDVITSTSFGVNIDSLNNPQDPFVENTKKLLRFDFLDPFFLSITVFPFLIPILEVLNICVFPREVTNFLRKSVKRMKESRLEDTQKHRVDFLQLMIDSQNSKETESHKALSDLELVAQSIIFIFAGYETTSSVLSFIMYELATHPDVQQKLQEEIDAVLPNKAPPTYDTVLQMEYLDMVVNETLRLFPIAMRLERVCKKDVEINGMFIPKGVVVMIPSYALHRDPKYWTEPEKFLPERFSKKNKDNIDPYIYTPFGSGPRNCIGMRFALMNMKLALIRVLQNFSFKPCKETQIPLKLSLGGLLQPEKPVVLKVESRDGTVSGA
UniProt P11712, whole entry, looked up: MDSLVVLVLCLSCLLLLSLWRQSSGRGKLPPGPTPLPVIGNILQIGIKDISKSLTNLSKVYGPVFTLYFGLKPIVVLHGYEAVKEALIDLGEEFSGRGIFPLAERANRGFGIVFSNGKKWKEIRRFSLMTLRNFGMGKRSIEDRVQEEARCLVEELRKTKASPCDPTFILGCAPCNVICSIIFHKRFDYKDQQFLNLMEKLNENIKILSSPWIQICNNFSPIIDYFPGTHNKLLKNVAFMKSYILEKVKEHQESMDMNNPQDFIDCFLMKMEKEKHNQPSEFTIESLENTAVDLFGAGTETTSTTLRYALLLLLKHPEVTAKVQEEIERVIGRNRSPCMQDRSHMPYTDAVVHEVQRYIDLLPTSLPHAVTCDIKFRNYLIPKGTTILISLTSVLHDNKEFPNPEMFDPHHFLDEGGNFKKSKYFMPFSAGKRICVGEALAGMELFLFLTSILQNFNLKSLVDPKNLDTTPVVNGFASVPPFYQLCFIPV

Assays:
[1] = target: Cytochrome P450 3A4 (Homo sapiens) (UniProt P08684); assay: Cytochrome P450 family 3 subfamily A member 4 (CYP3A4) small molecule antagonists: luciferase qHTS assay (AID 1645841; active = well fitted curve in the direction sought with a large enough effect in the repeat runs; an effect the other way counts as inactive or inconclusive; also: nearly all actives have a fitted effect of over 45% in size)
[2] = target: Cytochrome P450 2C9 (Homo sapiens) (UniProt P11712); assay: Cytochrome P450 family 2 subfamily C member 9 (CYP2C9) small molecule antagonists: luciferase qHTS assay (AID 1645842; active = well fitted curve in the direction sought with a large enough effect in the repeat runs; an effect the other way counts as inactive or inconclusive; also: % is scaled to controls: 0 for no effect and ±100 for the full control effect; nearly all actives have a fitted effect of over 55% in size); conditions: P450-Glo CYP2C9 enzyme assay, luciferin luminescence; at 57.4 µM (top of the series) unless noted
Method in brief: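 P450-Glo CYP2C9 system: proluciferin substrate with enzyme in mix containing 0.4% BSA, 10 min at room temperature, then NADPH regeneration solution added and incubated 1 h at 37C. Detection reagent stopped reaction; luminescence read after 20 min as RLU.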

[3] = Primary qHTS for inhibitors of nuclear receptor binding SET domain protein 2 (NSD2) in an isogenic RCH-ACV NSD2 p.E1099K mutant (9B) (AID 1645876); also: % is scaled to controls: 0 for no effect and ±100 for the full control effect; nearly all actives have a fitted effect of over 70% in size
CRL-7250 [4] = assay: Cytotoxic Profiling of Annotated Libraries Using Quantitative High-Throughput Screening (AID 1296008); conditions: Five cell lines viability, CellTiter-Glo ATP luminescence, 48-72 h; stronger effect = lower value; also: nearly all actives have a fitted effect of over 60% in size; as to max response: % is scaled to controls: 0 for no effect and ±100 for the full control effect
HEK293 = assay: as above; conditions: Five cell lines viability, CellTiter-Glo ATP luminescence, 48-72 h; max response: stronger effect = lower value
HaCat = assay: as above; conditions: Five cell lines viability, CellTiter-Glo ATP luminescence, 48-72 h; stronger effect = lower value
KB-3-1 = assay: as above; conditions: Five cell lines viability, CellTiter-Glo ATP luminescence, 48-72 h, stronger effect = lower value
NIH3T3 = assay: as above; conditions: Five cell lines viability, CellTiter-Glo ATP luminescence, 48-72 h; stronger effect = lower value
CRL-7250 [5] = assay: qHTS assay to identify novel small-molecules to repurpose for Merkel cell carcinoma treatment (AID 1296009); conditions: MCC and control cell lines, CellTiter-Glo viability, 72 h; at 44.8 µM (top of the series) unless noted; also: nearly all actives have a fitted effect of over 60% in size; as to activity change, negative = cytotoxicity: % is scaled to controls: 0 for no effect and ±100 for the full control effect
MCC-13 = assay: as above; conditions: MCC and control cell lines, CellTiter-Glo viability, 72 h; at 46 µM (top of the series) unless noted
MCC-26 = assay: as above; conditions: MCC and control cell lines, CellTiter-Glo viability, 72 h; at 46 µM (top of the series) unless noted
MKL-1 = assay: as above; conditions: MCC and control cell lines, CellTiter-Glo viability, 72 h; at 46 µM (top of the series) unless noted
MKL-2 = assay: as above; conditions: MCC and control cell lines, CellTiter-Glo viability, 72 h; at 46 µM (top of the series) unless noted
WaGa = assay: as above; conditions: MCC and control cell lines, CellTiter-Glo viability, 72 h; at 46 µM (top of the series) unless noted
C33A = assay: Primary qHTS to identify gynecologic anti-cancer compounds using libraries of approved drugs and bioactive compounds (AID 1345084); conditions: Gynecologic cancer cell panel viability, ATPlite luminescence, 48 h; at 57.5 µM (top of the series) unless noted; also: % is scaled to controls: 0 for no effect and ±100 for the full control effect; nearly all actives have a fitted effect of over 55% in size
Method in brief: (§1)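 Measured: luminescence after ATPlite addition (15 min, RT). Exposure: 48 h, 37 C, 5% CO2.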

CAOV3 = assay: as above; conditions: Gynecologic cancer cell panel viability, ATPlite luminescence, 48 h; at 57.5 µM (top of the series) unless noted
Method in brief: as §1

CASKI = assay: as above; conditions: Gynecologic cancer cell panel viability, ATPlite luminescence, 48 h; at 57.5 µM (top of the series) unless noted
Method in brief: as §1

Es-2 = assay: as above; conditions: Gynecologic cancer cell panel viability, ATPlite luminescence, 48 h; at 57.5 µM (top of the series) unless noted
Method in brief: as §1

HeLa = assay: as above; conditions: Gynecologic cancer cell panel viability, ATPlite luminescence, 48 h; at 57.5 µM (top of the series) unless noted
Method in brief: as §1

Hek293T = assay: as above; conditions: Gynecologic cancer cell panel viability, ATPlite luminescence, 48 h, control line for the selectivity index; at 57.5 µM (top of the series) unless noted
Method in brief: as §1

JEG-3 = assay: as above; conditions: Gynecologic cancer cell panel viability, ATPlite luminescence, 48 h; at 57.5 µM (top of the series) unless noted
Method in brief: as §1

OV90 = assay: as above; conditions: Gynecologic cancer cell panel viability, ATPlite luminescence, 48 h; at 57.5 µM (top of the series) unless noted
Method in brief: as §1

PA-1 = assay: as above; conditions: Gynecologic cancer cell panel viability, ATPlite luminescence, 48 h; at 57.5 µM (top of the series) unless noted
Method in brief: as §1

SKOV3 = assay: as above; conditions: Gynecologic cancer cell panel viability, ATPlite luminescence, 48 h; at 57.5 µM (top of the series) unless noted
Method in brief: as §1

Tov-21-G = assay: as above; conditions: Gynecologic cancer cell panel viability, ATPlite luminescence, 48 h; at 57.5 µM (top of the series) unless noted
Method in brief: as §1

Tov112D = assay: as above; conditions: Gynecologic cancer cell panel viability, ATPlite luminescence, 48 h; at 57.5 µM (top of the series) unless noted
Method in brief: as §1

astro = assay: Drug repurposing screens with cells derived from glioblastoma tumor samples (AID 1345199); conditions: viability, ATP luminescence, 48 h; at 45.9 µM (top of the series) unless noted; also: % is scaled to controls: 0 for no effect and ±100 for the full control effect; nearly all actives have a fitted effect of over 40% in size
Method in brief: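 Primary testing used CD133+ neurospheres from four GBM patients, seven concentrations, 48 h exposure and ATP-based viability; confirmation added three slower-growing patient lines.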

CCNC(C)Cc1ccc2c(c1)OCO2 (configuration not stated)
inactive: Potency [1] | activity change, negative = inhibition [2] 7.5% [at 115 µM] | Potency [3] | outcome (CRL-7250 [4]) | max response (HEK293) -5.82% | max response (HaCat) 0.721% | max response (KB-3-1) -8.96% | max response (NIH3T3) -5.77% | outcome (CRL-7250 [5]) inactive [at 92 µM] | activity change, negative = cytotoxicity (MCC-13) -2.17% [at 92.7 µM] | activity change, negative = cytotoxicity (MCC-26) -2.52% [at 92.7 µM] | activity change, negative = cytotoxicity (MKL-1) -14.2% [at 92.7 µM] | activity change, negative = cytotoxicity (MKL-2) 8.25% [at 92.7 µM] | activity change, negative = cytotoxicity (WaGa) -6.51% [at 92.7 µM] | activity change, negative = cytotoxicity (C33A) 1.96% [at 116 µM] | activity change, negative = cytotoxicity (CAOV3) -1.81% [at 116 µM] | activity change, negative = cytotoxicity (CASKI) -1.61% [at 116 µM] | activity change, negative = cytotoxicity (Es-2) -0.134% [at 116 µM] | activity change, negative = cytotoxicity (HeLa) -6.4% [at 116 µM] | activity change, negative = cytotoxicity (Hek293T) -31.5% [at 116 µM] | activity change, negative = cytotoxicity (JEG-3) 0.262% [at 116 µM] | activity change, negative = cytotoxicity (OV90) 16.2% [at 116 µM] | activity change, negative = cytotoxicity (PA-1) -11.1% [at 116 µM] | activity change, negative = cytotoxicity (SKOV3) -14.9% [at 116 µM] | activity change, negative = cytotoxicity (Tov-21-G) -1.79% [at 116 µM] | activity change, negative = cytotoxicity (Tov112D) -0.897% [at 116 µM] | activity, negative = cell killing (astro) -10.6% [at 108 µM]
